Assay results reported in patent publication US20220031713A1, “METHODS OF TREATING MYELOPROLIFERATIVE DISORDERS” (Impact Biomedicines, Inc., priority 2018, published 2022).

By UniProt entry, the sequences of proteins in these tests, tags left out. Where a name states a change or a piece, a line headed by the entry shows the natural chain unless it says otherwise.
UniProt O60674: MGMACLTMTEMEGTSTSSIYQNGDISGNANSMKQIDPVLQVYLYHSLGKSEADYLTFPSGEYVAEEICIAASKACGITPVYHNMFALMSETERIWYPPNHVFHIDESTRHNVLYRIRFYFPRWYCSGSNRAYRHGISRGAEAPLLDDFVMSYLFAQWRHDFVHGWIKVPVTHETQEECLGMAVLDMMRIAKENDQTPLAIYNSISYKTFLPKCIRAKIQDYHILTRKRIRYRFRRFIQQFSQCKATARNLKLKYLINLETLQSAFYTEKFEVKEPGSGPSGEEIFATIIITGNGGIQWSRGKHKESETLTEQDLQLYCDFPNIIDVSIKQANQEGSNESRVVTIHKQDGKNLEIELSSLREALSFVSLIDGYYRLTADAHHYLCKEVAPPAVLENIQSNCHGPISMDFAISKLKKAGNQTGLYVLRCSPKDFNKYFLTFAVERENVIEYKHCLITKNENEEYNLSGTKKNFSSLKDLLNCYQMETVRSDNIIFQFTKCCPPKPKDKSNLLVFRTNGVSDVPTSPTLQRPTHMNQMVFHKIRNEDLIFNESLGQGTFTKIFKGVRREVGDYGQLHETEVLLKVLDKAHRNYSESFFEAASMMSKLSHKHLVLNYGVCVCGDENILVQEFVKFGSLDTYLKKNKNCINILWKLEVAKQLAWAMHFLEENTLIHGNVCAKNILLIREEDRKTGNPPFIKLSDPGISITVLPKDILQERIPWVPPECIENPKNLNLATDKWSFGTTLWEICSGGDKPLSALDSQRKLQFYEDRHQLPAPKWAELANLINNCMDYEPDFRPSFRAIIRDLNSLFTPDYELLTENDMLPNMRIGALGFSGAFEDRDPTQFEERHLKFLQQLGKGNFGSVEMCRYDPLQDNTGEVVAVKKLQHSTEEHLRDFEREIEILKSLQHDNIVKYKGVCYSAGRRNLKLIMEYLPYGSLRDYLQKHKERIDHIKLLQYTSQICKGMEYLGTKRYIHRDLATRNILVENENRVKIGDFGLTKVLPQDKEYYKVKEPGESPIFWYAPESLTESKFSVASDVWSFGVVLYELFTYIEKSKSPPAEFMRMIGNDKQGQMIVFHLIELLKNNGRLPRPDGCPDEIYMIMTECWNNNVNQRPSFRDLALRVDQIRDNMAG

Biological target: JAK2 (Homo sapiens, UniProt O60674)
Experiment: JAK2 kinase activity inhibition
Format: biochemical

Cc1cnc(Nc2ccc(OCCN3CCCC3)cc2)nc1Nc1cccc(S(=O)(=O)NC(C)(C)C)c1 [Compound I, fedratinib]
inhibition of JAK2 kinase activity: potent and selective inhibitor
